Assay results as given in PMC2999670 (The Journal of steroid biochemistry and molecular biology, 2010).

The chains behind the UniProt entries cited, without tags or fusion partners.
UniProt P26439, whole entry Q105M: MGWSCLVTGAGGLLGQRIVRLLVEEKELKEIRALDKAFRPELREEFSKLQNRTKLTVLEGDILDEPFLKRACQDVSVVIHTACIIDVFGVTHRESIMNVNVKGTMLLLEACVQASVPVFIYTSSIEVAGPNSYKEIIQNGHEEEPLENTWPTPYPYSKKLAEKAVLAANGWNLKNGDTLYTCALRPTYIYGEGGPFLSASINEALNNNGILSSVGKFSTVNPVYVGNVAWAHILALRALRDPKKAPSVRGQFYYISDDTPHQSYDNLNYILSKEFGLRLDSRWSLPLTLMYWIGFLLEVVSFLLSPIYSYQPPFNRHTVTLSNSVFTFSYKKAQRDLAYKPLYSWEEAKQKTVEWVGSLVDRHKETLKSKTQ

Key:
Format in all cases: biochemical
[1] = target: T1, Q105M-1 mutant of 3β-HSD1 (Homo sapiens, UniProt P14060, Q106M); test: Michaelis-Menten kinetics of 3β-HSD substrate; settings: Table 4; substrate DHEA 3-100 μM, NAD+ 200 μM, 27° C, pH 7.4
T1 sequence (P14060 1-373 Q106M): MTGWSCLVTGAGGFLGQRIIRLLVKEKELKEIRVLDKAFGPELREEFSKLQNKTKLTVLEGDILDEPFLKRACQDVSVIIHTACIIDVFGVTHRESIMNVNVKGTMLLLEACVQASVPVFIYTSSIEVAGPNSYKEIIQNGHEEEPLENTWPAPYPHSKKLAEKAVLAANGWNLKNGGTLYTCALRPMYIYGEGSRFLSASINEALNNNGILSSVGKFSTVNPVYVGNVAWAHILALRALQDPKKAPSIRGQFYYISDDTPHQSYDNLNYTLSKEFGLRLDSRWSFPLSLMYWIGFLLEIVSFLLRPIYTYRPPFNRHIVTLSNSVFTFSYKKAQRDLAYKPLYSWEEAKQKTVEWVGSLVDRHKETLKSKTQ

[2] = target: T2, Q105M-2 mutant of 3β-HSD2 (Homo sapiens, UniProt P26439, Q105M); test: Michaelis-Menten kinetics of 3β-HSD substrate; settings: Table 4; substrate DHEA 3-100 μM, NAD+ 200 μM, 27° C, pH 7.4
[3] = target: T1, Q105M-1 mutant of 3β-HSD1; test: Inhibition of 3β-HSD activity of purified enzyme, Dixon analysis
[4] = target: T2, Q105M-2 mutant of 3β-HSD2; test: as above

Row | Structure (SMILES) | 3β-HSD kcat [1] | 3β-HSD kcat [2] | Ki [3] | Ki [4]
1 | C[C@]12CC[C@H](O)CC1=CC[C@@H]1[C@@H]2CC[C@]2(C)C(=O)CC[C@@H]12 [DHEA, dehydroepiandrosterone] | 0.113 s⁻¹ | 0.075 s⁻¹ | – | –
2 | C[C@]1(O)CC[C@H]2[C@@H]3CC[C@@]45O[C@]4(C)C(O)=C(C#N)C[C@]5(C)[C@H]3CC[C@@]21C [epostane] | – | – | 1840 nM | 1640 nM
